Data from US9072759B2 (priority 2008, dated 2015).
Marks after values point to notes of the source that are not given here.

Legend:
[1] = test system: S. pneumoniae (ATCC 49619)
[2] = test system: β-haemolytic streptococci (5)
[3] = test system: Viridans group streptococci (5)
[4] = test system: Coagulase-neg. staphylococci (5)

`CC[C@H]1OC(=O)[C@H](C)[C@@H](O[C@H]2C[C@@](C)(OC)[C@@H](O)[C@H](C)O2)[C@H](C)[C@@H](O[C@@H]2O[C@H](C)C[C@H](N(C)C)[C@H]2O)[C@](C)(O)C[C@@H](C)CN(C)[C@H](C)[C@@H](O)[C@]1(C)O` [AZI, Azithromycin, reference compound] was tested, and the “Antimicrobial activity (time kill curve)” value [1] was “Cidal at 2X, 4X, 8X (slow killing)”.

With `CC[C@H]1OC(=O)[C@@](C)(F)C(=O)[C@H](C)[C@@H](OC2OC(C)CC(N(C)C)C2O)[C@@](C)(OC)C[C@@H](C)C(=O)[C@H](C)[C@H]2N(CCCCn3cc(-c4cccc(N)c4)nn3)C(=O)O[C@]12C` (stereo partly drawn) [CEM-101, 11-N-4-(3-aminophenyl)-[1,2,3]triazol-1-yl]-butyl}-5-desosaminyl-3-oxo-2-fluoro-erythronolide A,-11,12-cyclic carbamate] the “Antimicrobial activity (time kill curve)” value [1] was “Cidal at 2X, 4X, 8X”.

In the case of `CC[C@H]1OC(=O)[C@H](C)[C@@H](O[C@H]2C[C@@](C)(OC)[C@@H](O)[C@H](C)O2)[C@H](C)[C@@H](O[C@@H]2O[C@H](C)C[C@H](N(C)C)[C@H]2O)[C@](C)(OC)C[C@@H](C)C(=O)[C@H](C)[C@@H](O)[C@]1(C)O` [CLR, Clarithromycin], the “No. of strains with MBC/MIC value of: ≧32” value [2] is reported as 2^b, the “No. of strains with MBC/MIC value of: ≧32” value [3] is reported as 3^b and the “No. of strains with MBC/MIC value of: ≧32” value (S. aureus (10)) is reported as 6^b. The “No. of strains with MBC/MIC value of: ≧32” value [4] was 4^b, the “No. of strains with MBC/MIC value of: ≧32” value (Enterococcus spp. (5)) was 2^b and the “Antimicrobial activity (time kill curve)” value [1] was “Cidal at 2X, 4X, 8X (slow killing)”.

For `CC[C@H]1OC(=O)[C@H](C)C(=O)[C@H](C)[C@@H](O[C@@H]2O[C@H](C)C[C@H](N(C)C)[C@H]2O)[C@](C)(OC)C[C@@H](C)C(=O)[C@H](C)[C@H]2N(CCCCn3cnc(-c4cccnc4)c3)C(=O)O[C@]12C` [TEL, Telithromycin], the “Antimicrobial activity (time kill curve)” value [1] was “Cidal at 2X, 4X, 8X”.
